Reference: ChEMBL document CHEMBL3588796, “Potency enhancement of the κ-opioid receptor antagonist probe ML140 through sulfonamide constraint utilizing a tetrahydroisoquinoline motif” (Bioorg Med Chem, 2015)

Protein sequences, listed by entry. Tags and fused reporters are not part of them. Lines headed by an entry give the natural chain unless they say otherwise; changes in a name come on top.
UniProt P41145: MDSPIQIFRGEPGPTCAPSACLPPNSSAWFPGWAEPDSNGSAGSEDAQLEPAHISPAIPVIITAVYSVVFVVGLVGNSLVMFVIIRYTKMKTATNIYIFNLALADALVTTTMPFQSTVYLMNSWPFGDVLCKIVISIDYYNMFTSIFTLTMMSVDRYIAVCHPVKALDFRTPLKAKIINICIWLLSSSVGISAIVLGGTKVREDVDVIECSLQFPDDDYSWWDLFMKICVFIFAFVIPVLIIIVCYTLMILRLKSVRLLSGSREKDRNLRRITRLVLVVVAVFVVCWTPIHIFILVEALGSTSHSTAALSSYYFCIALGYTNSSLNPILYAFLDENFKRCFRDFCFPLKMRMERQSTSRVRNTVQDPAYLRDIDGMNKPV

How the values were obtained:
[1] = target: T1, Kappa-type opioid receptor (Homo sapiens, UniProt P41145); assay: Antagonist activity against human kappa opioid receptor expressed in human U2OS cells co-expressing beta-arrestin2 pre-treated for 15 mins before U69,593 stimulation for 90 mins by DiscoveRx beta-arrestin2 recruitment based PathHunter assay; type: cell-based
[2] = target: T1, Kappa-type opioid receptor; assay: Antagonist activity against HA-tagged human recombinant kappa opioid receptor expressed in CHO cell membranes incubated for 1 hr by [35S]GTPgammaS binding assay; type: functional
[3] = target: T1, Kappa-type opioid receptor; assay: Antagonist activity against HA-tagged human recombinant kappa opioid receptor expressed in CHO cells assessed as inhibition of U69,593-induced ERK phosphorylation pre-incubated with compound before U69,593 stimulation for 10 mins; type: cell-based

Cc1ccc(S(=O)(=O)NCc2ccc(C(=O)NCCN(Cc3ccc(Br)cc3)C(C)C)cc2)cc1
IC50 [1]: 937 nM | IC50 [2]: 168 nM | IC50 [3]: 750 nM

CCc1ccc(S(=O)(=O)N2CCc3cc(C(=O)NCCN(Cc4ccccc4)C(C)(C)C)ccc3C2)cc1
IC50 [1]: 186 nM | IC50 [2]: 3.4 nM | IC50 [3]: 143 nM
